Ab-14 light chain CDR variants: yeast mating affinities

Reference: Li et al. 2023, doi:10.1038/s41467-023-39022-2. File: FLAb, binding data.

Antigen: PDVDLGDISGINAS, a 14-residue peptide of the SARS-CoV-2 spike HR2 region.

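The starting antibody came from a phage panning campaign against this peptide. Designed CDR sequences, proposed from the first random library and measured here. Group labels follow the data file (En: ensemble of fine-tuned language models; GP: Gaussian process model; HC: hill climbing; Gen: genetic algorithm; Gibbs: Gibbs sampling; a sequence that several methods proposed may carry one label only). Affinity was read by AlphaSeq, a pooled yeast mating assay with surface-displayed partners. The frequency of each diploid, read from paired DNA barcodes, reflects how well the two displayed proteins bind. The ratio of observed to expected reads was calibrated, replicate by replicate, on BCL2-family standards whose Kd was known from biolayer interferometry. There are six technical replicates.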

Parent scFv Ab-14: VH joined to VL by three GGGGS repeats. Changes lie in the light chain CDRs alone.
VH: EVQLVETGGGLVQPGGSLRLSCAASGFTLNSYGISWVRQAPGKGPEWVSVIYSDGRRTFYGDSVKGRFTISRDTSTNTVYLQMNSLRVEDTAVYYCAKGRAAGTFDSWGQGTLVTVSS
VL: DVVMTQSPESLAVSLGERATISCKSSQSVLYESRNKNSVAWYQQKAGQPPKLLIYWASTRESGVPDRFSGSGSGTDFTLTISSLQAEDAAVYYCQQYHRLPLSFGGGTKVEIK

The parent's light chain CDRs are KSSQSVLYESRNKNSVA, WASTRES, QQYHRLPLS; each variant's own CDRs replace them letter for letter. This list holds designs with more than six substitutions. Values are apparent Kd, the geometric mean of the replicates that gave a signal; lower means stronger binding. A pair that was not seen in any replicate is written "no signal"; this usually means weak binding, but a binder can also be missed. Values of this round are not directly comparable with the first-round values of the same sequences. The parent sequence was in this pool as ten entries: three were never detected, three once, and four in most replicates, with averages from 2.2 nM to 240 nM. In the paper, a design with two or fewer of six values counts as a poor binder. Empty control strains, which show no peptide, gave a signal in 4% of pairings with all light chain designs; the median was 430 nM and 95% of these signals were weaker than 38 nM. No background was subtracted.

For KLGQMTALESRNLNSVA | QMDTRES | QQYHRLPLS [En_HC], the assay gave 9.5 nM (6 of 6 replicates). Variant KVSFFNEQVTKKGSNVA | DNETRES | QQYFRLPLS [En_Gen] showed 890 pM (6 of 6 replicates). For MISQLSNMGQFAINSVA | QASLRND | QQYDRLPLV [En_Gen], the assay gave 16 nM (6 of 6 replicates). Variant ILSDSVHTLSRNKNSVA | DNSTRES | QQYDRLPLS [En_HC] showed 86 nM (5 of 6 replicates). Variant TISQLMNMGQFAINSVA | QASIRNS | QQYDRLPLM [En_Gen] showed 1.0 nM (6 of 6 replicates). For MVNGIMDHLSKQHNNVA | ETETREE | QQYDRLPLS [En_Gen], the assay gave 39 nM (4 of 6 replicates).

Variant TISGVMNSQSHVKNNVA | EMSTREK | QQYVRLPLA [En_Gen] showed 31 nM (6 of 6 replicates). Variant GLSNQETEQIQHANSIA | DRDERDV | QQYAHLPLS [En_Gibbs] gave 1.4 nM (6 of 6 replicates). For KLYQSMGYLSHNKSSIA | DMSRREN | QQYHRLPLS [En_HC], the assay gave 6.4 nM (6 of 6 replicates). With KITATMRFEQKASNNIA | EVTTRSK | QQYYRLPLS [En_Gen] the result was 3.2 nM (6 of 6 replicates). With FMRMECYGYQNYGNSIA | HANIRHN | QQYSRLPFS [En_Gibbs] the result was 120 nM (6 of 6 replicates). Variant HLSMSVDLESVHKNSIA | DLMTRES | QQYHRLPLS [En_HC] showed 800 pM (6 of 6 replicates).

With QFSNVNMQGNAQWANVA | EASYAFE | QQYARLPLQ [En_Gibbs] the result was 14 nM (6 of 6 replicates). Variant KVAYSEPYESRNKNSVA | DASTRSS | QQYHRLPLS [GP_Gibbs] gave 430 pM (6 of 6 replicates). For YVSIDAAEGRNQQSAVA | GVSYKEK | QQYYKLPLS [En_Gibbs], the assay gave 4.1 nM (6 of 6 replicates). Variant KITGMWTFESKNKNNIA | EESTRED | QSYHRLPLS [En_HC] showed 3.1 nM (6 of 6 replicates). Variant KLDFSVLEESRNPNSVA | SASTRES | QDYHRLPLS [GP_Gibbs] gave 2.1 nM (6 of 6 replicates). For TLMFAGEQEDSENKAIA | DAIHKGV | QQYNRLPLT [En_Gibbs], the assay gave 630 pM (6 of 6 replicates).

For MLLQATMYGERNRNSVA | HAQTRED | QQYHRLPLI [En_HC], the assay gave 4.2 nM (6 of 6 replicates). Variant NLSLNHENYGEDMQSIA | QAQTLAF | QQYHHLPLM [En_Gibbs] gave 4.7 nM (6 of 6 replicates). Variant ALALTGHQVDSQMQNIA | DGMLRES | QQYNRLPLT [En_Gibbs] showed 3.3 nM (5 of 6 replicates). Variant KLTMIMGLEKVSKNNVA | EMETRER | QQYNRLPLA [En_Gen] showed 9.3 nM (6 of 6 replicates). For KIHELGVGNWKTANNIA | QTDLRMS | QSYNRLPLS [En_Gibbs], the assay gave 4.4 nM (6 of 6 replicates). With KLQLQPRDGAQAQSSIA | DVSEADM | QQYARLPLH [En_Gibbs] the result was 91 nM (6 of 6 replicates).

With IVSQLMLWGWHAKNSIA | EAEMRTN | QQYDRLPLF [En_Gen] the result was no signal (0 of 6 replicates). For HINTLDVGVSDHYNSVA | EQRAAGI | QQYFRLPLS [En_Gibbs], the assay gave 5.8 nM (6 of 6 replicates). Variant KVSEFMRGLMSKKDSIA | DMVTRSN | QQYDRLPLS [En_Gen] showed 2.9 nM (6 of 6 replicates). With NFYMSAAEFVNEDSSIA | DAEISYD | QQYHRLPLV [En_Gibbs] the result was 70 nM (5 of 6 replicates). Variant TLGQSVLMESRNKNNVA | QMSTREK | QQYDRLPLS [En_HC] showed 960 pM (6 of 6 replicates). For KISMLINMTFEESNNVA | EMVTREK | QQYNRLPLS [En_Gen], the assay gave 140 nM (5 of 6 replicates).

For KISMLFNYASTNKNSIA | EMTTRES | QHYHRLPLS [En_HC], the assay gave 20 nM (6 of 6 replicates). For TISQSVNMTSHGKNSVA | QAEMREE | QQYDRLPLS [En_HC], the assay gave 34 nM (6 of 6 replicates). Variant ILYDSVGTLSRNHNSVA | DNSTRES | QQYDRLPLS [En_HC] showed 62 nM (5 of 6 replicates). Variant KLSISHNVESINKSNVA | EMVTRES | QQYDRLPLS [En_HC] gave 1.6 µM (1 of 6 replicates). Variant KISQMYRYEQQNSSSIA | EVNTREQ | QSYHRLPLS [En_HC] showed 57 nM (1 of 6 replicates). Variant ILGDSVLTLSRNKNSVA | DNSTRES | QQYDRLPLS [En_HC] gave 8.8 nM (6 of 6 replicates).

For KISQMVRVGLTHNNSIA | EEATRAK | QQYHRLPLS [En_Gen], the assay gave 43 nM (6 of 6 replicates). Variant NISINQADEYKMRNNIA | NTSWKAM | QQYFHLPLM [En_Gibbs] gave 3.3 nM (6 of 6 replicates). For KVSYSVEYEDRNKNSVA | QASQRNS | QQYHRLPLS [GP_Gibbs], the assay gave 2.1 nM (6 of 6 replicates). Variant RVRNEMGKEMERKQSVA | ETEQRCM | QQYARLPLI [En_Gibbs] gave 6.0 nM (6 of 6 replicates). For IVSQLMLWGYHAKNSIA | EAHTRLN | QQYDRLPLF [En_Gen], the assay gave 54 nM (1 of 6 replicates). Variant SFSQSVLYEQVHKNNVA | QTSTREE | QQYDHLPLS [En_HC] gave 1.4 nM (6 of 6 replicates).

For MIYGAARELGLAANSIA | DNVTRYN | QQYERLPLS [En_Gen], the assay gave 250 nM (1 of 6 replicates). Variant TISQSMMYLSNLKNSVA | QAETRES | QQYHRLPIS [En_HC] showed 2.1 nM (6 of 6 replicates). For KITWSQYNWTSNYQAVA | EQNMRAT | QSYYRLPFS [En_Gibbs], the assay gave 10 nM (6 of 6 replicates). Variant NLSAMTAHESVKSKNVA | ERSTREQ | QQYNRLPLS [En_Gen] showed 88 nM (5 of 6 replicates). For TISQSTQMESHNKNSVA | DLNLRGS | QQYDRLPLS [En_HC], the assay gave 5.9 nM (6 of 6 replicates). With KISQSHLYESRNWNAVA | EASQRPS | QQYHRLPLS [GP_Gibbs] the result was 1.7 nM (6 of 6 replicates).

Variant KISQTFNVGTKNKNSLA | EMSTRGF | QDYYRLPLS [En_HC] gave 370 nM (6 of 6 replicates).

For reference, 4 entries of the list once more:

CDR-L1	CDR-L2	CDR-L3	group	Kd	detected
TLGQSVLMESRNKNNVA	QMSTREK	QQYDRLPLS	En_HC	960 pM	6/6
IVSQLMLWGWHAKNSIA	EAEMRTN	QQYDRLPLF	En_Gen	no signal	0/6
QFSNVNMQGNAQWANVA	EASYAFE	QQYARLPLQ	En_Gibbs	14 nM	6/6
KITGMWTFESKNKNNIA	EESTRED	QSYHRLPLS	En_HC	3.1 nM	6/6